## Ab-14 light chain CDR variants: yeast mating affinities

Values reported by Engelhart et al. 2022, doi:10.1038/s41597-022-01779-4 (FLAb copy).

Antigen: PDVDLGDISGINAS, a 14-residue peptide of the SARS-CoV-2 spike HR2 region.

Parent: Ab-14, a human scFv built as VH, the linker GGGGSGGGGSGGGGS, VL. Only the CDRs of the light chain vary.
VH: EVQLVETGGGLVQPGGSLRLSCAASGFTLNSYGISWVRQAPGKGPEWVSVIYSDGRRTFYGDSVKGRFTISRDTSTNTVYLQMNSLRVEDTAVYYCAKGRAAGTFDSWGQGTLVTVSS
VL: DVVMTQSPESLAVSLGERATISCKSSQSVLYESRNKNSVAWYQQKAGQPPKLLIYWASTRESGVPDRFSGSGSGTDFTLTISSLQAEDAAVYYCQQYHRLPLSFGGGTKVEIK

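The parent was found by panning a naive human phage display library on the peptide. The library (AAYL50) carries one to three amino acid substitutions per variant, with no insertions or deletions. The scFvs were displayed on barcoded MATa yeast, the peptide on MATalpha yeast. Binding brings cells together so that they mate, and sequencing counts the barcode pairs among the diploids. Scores were corrected for input abundance and mapped to Kd with protein pairs of known affinity run in the same pool. Mating was done three times.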

Sequences are complete VL domains.
Scale: log10 of Kd in nM, estimated from mating counts; low values are strong binders.
Replicates are averaged; those with no signal do not enter the mean.
"nd" means that the variant was in the library but no mating with the target was seen in any replicate; the authors take this as a sign of poor binding, and no number exists.
Parent in this assay: reference entry 0.65, copy in this library 1.68.

| # | mean, log10 nM | seen in | control signals | VL |
|---|---|---|---|---|
| 1 | 1.15 | 3 of 3 | 2 of 9 | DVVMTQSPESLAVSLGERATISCKSSQSVLYESRNKNSVAWYQQKAGQPPKLLIYWASIRESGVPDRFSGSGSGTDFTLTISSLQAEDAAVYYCGQYHRLPASFGGGTKVEIK |
| 2 | 4.12 | 1 of 3 | 1 of 9 | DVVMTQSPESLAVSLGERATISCYSSQSVLYESRNKNDFAWYQQKAGQPPKLLIYWASTRESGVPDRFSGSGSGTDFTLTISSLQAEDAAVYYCQQYHRLPLSFGGGTKVEIK |
| 3 | 3.30 | 2 of 3 | 6 of 9 | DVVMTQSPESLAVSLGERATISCKSSQSVLYESRNKNSVAWYQQKAGQPPKLLIYWALTRESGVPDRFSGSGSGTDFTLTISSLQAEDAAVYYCDQYHHLPLSFGGGTKVEIK |
| 4 | 3.14 | 1 of 3 | 0 of 9 | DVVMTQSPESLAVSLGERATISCKSSQSMLYESRNKNSVAWYQQKAGQPPKLLIYWAMTRESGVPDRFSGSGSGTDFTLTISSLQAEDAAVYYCMQYHRLPLSFGGGTKVEIK |
| 5 | 3.13 | 2 of 3 | 1 of 9 | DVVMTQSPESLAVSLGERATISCKSSPSVLYESRQKNSVAWYQQKAGQPPKLLIYWASTAESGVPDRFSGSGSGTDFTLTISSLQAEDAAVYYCQQYHRLPLSFGGGTKVEIK |
| 6 | 3.24 | 1 of 3 | 2 of 9 | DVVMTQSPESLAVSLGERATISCKSSQSVLYESRNKNSVAWYQQKAGQPPKLLIYWASTRNSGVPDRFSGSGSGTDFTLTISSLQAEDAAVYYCQQYHRLYLSFGGGTKVEIK |
| 7 | nd | 0 of 3 | 0 of 9 | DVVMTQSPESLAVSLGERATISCKSSQSVLYESRNKNSVRWYQQKAGQPPKLLIYWASTRESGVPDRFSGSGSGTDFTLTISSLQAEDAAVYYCMQYHRLPFSFGGGTKVEIK |
| 8 | nd | 0 of 3 | 3 of 9 | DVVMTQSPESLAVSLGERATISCKSSQNVLYESRNKNSEAWYQQKAGQPPKLLIYWASTRESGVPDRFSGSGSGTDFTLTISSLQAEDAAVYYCQQYHRLPLSFGGGTKVEIK |
| 9 | 1.19 | 3 of 3 | 3 of 9 | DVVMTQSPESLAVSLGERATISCKSNQSVLVEARNKNSVAWYQQKAGQPPKLLIYWASTRESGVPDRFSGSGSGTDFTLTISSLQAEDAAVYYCQQYHRLPLSFGGGTKVEIK |
| 10 | nd | 0 of 3 | 2 of 9 | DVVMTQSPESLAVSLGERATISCKSSQQELYESRNKNSVAWYQQKAGQPPKLLIYWASTRESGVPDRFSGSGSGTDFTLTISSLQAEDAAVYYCQQYHWLPLSFGGGTKVEIK |
| 11 | 4.30 | 3 of 3 | 1 of 9 | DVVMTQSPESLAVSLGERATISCKSSQSVLYESRNKNSVAWYQQKAGQPPKLLIYWHSTRESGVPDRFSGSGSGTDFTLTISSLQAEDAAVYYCQQYHRKPLSFGGGTKVEIK |
| 12 | 4.35 | 2 of 3 | 3 of 9 | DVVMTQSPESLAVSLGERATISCKSSQSVLYGSRNKNSGAWYQQKAGQPPKLLIYWAATRESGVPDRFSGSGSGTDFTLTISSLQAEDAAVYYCQQYHRLPLSFGGGTKVEIK |
| 13 | nd | 0 of 3 | 1 of 9 | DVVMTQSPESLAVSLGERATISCKSSQSVLYESRNKNDVAWYQQKAGQPPKLLIYWASTRESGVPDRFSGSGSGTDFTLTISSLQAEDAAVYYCQQKHRLPLSFGGGTKVEIK |
| 14 | 2.12 | 3 of 3 | 0 of 9 | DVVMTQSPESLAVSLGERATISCKSSQNVLYESRNKNSVAWYQQKAGQPPKLLIYWAMTRESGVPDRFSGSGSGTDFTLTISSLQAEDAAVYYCQQYHRLELSFGGGTKVEIK |
| 15 | 3.38 | 2 of 3 | 1 of 9 | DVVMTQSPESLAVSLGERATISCKSRQSVLYESRNKESVAWYQQKAGQPPKLLIYWASNRESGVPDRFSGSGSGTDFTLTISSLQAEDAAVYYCQQYHRLPLSFGGGTKVEIK |
| 16 | 0.48 | 3 of 3 | 1 of 9 | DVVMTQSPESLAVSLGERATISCKSSQSVLYESAMKNSVAWYQQKAGQPPKLLIYWASTRESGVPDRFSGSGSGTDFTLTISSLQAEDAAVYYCQQYCRLPLSFGGGTKVEIK |
| 17 | 1.05 | 3 of 3 | 1 of 9 | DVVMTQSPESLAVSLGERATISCYSSQSVLYESRNKNSVAWYQQKAGQPPKLLIYMASTRESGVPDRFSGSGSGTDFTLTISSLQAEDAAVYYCQQYHRLPLVFGGGTKVEIK |
| 18 | nd | 0 of 3 | 0 of 9 | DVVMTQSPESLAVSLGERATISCKSSQSVLYEHRNRNSVAWYQQKAGQPPKLLIYWASTRESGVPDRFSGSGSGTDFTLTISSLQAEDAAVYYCQQQHRLPLSFGGGTKVEIK |

For reference, 2 entries of the list once more:

VL,"mean, log10 nM",seen in,control signals
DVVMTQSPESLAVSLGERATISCKSSQSVLYESRNKNSVAWYQQKAGQPPKLLIYWHSTRESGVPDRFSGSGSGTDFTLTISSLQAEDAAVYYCQQYHRKPLSFGGGTKVEIK,4.30,3 of 3,1 of 9
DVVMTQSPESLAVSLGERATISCKSSQSVLYESRNKNSVAWYQQKAGQPPKLLIYWASTRNSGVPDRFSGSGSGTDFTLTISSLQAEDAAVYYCQQYHRLYLSFGGGTKVEIK,3.24,1 of 3,2 of 9

As a blank, each scFv also met three strains without target: over library AAYL50, 18% of these pairings were detected, typically at 4.19 and seldom below 2.99. For each scFv, signals with the empty controls are counted beside the result.